# In patent publication US20250123280A1, “LABEL-FREE DETECTION OF PROTEASE ACTIVITY” (OREGON HEALTH & SCIENCE UNIVERSITY, priority 2021, published 2025):
# Test system: Peptide 3 (Fmoc-FKFELAGGAGEEGSGEEE)
substance,measurement,value
Recombinant human cathepsin B,increase in ThT fluorescence after treatment of peptide 3 with cathepsin B,up to a 72 fold increase in ThT fluorescence after treatment of peptide 3 with cathepsin B
